# Laboratory results as given in US8440708B2, “Triazole-substituted arylamides as P2X3 and P2X2/3 antagonists” (Roche Palo Alto LLC, priority 2007, dated 2013).
# Sequences of proteins named here, by UniProt entry; tags and fusion partners are left off.
# UniProt P49654, whole entry: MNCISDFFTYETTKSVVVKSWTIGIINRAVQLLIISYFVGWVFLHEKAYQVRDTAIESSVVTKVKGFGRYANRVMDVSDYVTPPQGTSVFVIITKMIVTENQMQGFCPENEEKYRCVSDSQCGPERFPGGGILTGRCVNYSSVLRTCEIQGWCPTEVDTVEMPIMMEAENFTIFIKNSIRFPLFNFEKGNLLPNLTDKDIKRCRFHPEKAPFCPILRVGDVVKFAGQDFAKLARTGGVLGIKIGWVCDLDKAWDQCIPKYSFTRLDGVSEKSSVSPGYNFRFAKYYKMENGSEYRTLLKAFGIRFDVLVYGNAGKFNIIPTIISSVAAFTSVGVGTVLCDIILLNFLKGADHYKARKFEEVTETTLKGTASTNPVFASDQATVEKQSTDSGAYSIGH
# UniProt P56373, whole entry: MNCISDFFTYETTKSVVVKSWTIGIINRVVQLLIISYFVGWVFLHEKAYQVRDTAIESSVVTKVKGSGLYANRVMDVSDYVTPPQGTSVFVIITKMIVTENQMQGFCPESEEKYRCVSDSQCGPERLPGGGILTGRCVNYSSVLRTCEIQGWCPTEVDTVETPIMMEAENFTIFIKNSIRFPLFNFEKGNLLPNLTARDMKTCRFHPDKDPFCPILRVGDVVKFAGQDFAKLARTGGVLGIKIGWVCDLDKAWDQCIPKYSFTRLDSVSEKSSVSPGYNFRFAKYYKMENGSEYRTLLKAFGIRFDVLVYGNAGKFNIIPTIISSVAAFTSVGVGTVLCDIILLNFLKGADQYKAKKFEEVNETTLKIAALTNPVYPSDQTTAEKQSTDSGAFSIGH
# UniProt Q9UBL9, whole entry: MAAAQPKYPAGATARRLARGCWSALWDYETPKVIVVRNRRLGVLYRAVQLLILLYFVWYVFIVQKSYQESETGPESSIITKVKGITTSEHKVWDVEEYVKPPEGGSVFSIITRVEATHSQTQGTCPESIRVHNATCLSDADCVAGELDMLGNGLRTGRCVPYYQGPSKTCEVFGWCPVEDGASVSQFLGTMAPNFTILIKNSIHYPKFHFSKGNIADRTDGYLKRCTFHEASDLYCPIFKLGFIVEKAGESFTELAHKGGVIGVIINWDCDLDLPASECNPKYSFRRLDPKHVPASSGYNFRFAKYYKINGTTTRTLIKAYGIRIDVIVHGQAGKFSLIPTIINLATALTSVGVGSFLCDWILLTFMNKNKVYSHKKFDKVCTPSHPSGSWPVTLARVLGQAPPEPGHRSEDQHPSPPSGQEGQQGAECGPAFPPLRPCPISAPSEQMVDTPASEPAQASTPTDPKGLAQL
# Legend:
# rat P2X3 receptor = rat P2X3 receptor (Rattus norvegicus, UniProt P49654); assay: P2X3/P2X2/3 FLIPR (Fluorometric Imaging Plate Reader) Assay, P2X3; details: CHO-K1 cells transfected with rat P2X3; agonist α,β-meATP 1 μM; Table 1
# Method: P2X3/P2X2/3 FLIPR (Fluorometric Imaging Plate Reader) Assay
# CHO-K1 cells were transfected with cloned rat P2X3 or human P2X2/3 receptor subunits and passaged in flasks. 18-24 hours before the FLIPR experiment, cells were released from their flasks, centrifuged, and resuspended in nutrient medium at 2.5×10^5 cells/ml. The cells were aliquoted into black-walled 96-well plates at a density of 50,000 cells/well and incubated overnight in 5% CO2 at 37° C. On the day of the experiment, cells were washed in FLIPR buffer (calcium- and magnesium-free Hank's balanced salt solution, 10 mM HEPES, 2 mM CaCl2, 2.5 mM probenecid; FB). […]
# Test compounds (dissolved in DMSO at 10 mM and serially diluted with FB) or vehicle were added to each well (25 μl of a 4× solution) and allowed to equilibrate for 20 minutes at room temperature. The plates were then placed in the FLIPR and a baseline fluorescence measurement (excitation at 488 nm and emission at 510-570 nm) was obtained for 10 seconds before a 100 μl/well agonist or vehicle addition. […] Fluorescence was measured for an additional 2 minutes at 1 second intervals after agonist addition. A final addition of ionomycin (5 μM, final concentration) was made to each well of the FLIPR test plate to establish cell viability and maximum fluorescence of dye-bound cytosolic calcium. […]
# human P2X2/3 receptor = human P2X2/3 receptor (Homo sapiens, UniProt P56373+Q9UBL9); assay: P2X3/P2X2/3 FLIPR (Fluorometric Imaging Plate Reader) Assay, P2X2/3; details: CHO-K1 cells transfected with human P2X2/3; agonist α,β-meATP 5 μM; Table 1
structure (smiles),measurement,setting,value
Cc1ccc(-c2cc(C(=O)NCc3cnc(C)nc3)cc(-n3ncnc3C(F)(F)F)c2)nc1,P2X3 pKi,rat P2X3 receptor,8.53
same,P2X2/3 pKi,human P2X2/3 receptor,7.71
